## Antibody variant affinities, Ab-91 heavy chain, assay 2

From the AlphaSeq antibody data of Engelhart et al. 2022 (doi:10.1038/s41597-022-01779-4), copy in the FLAb collection.

The target is the same throughout: PDVDLGDISGINAS, from the HR2 region of SARS-CoV-2 spike.

The variants keep the light chain, the linker and the frameworks of Ab-91 (scFv order VL, three GGGGS repeats, VH).
VL: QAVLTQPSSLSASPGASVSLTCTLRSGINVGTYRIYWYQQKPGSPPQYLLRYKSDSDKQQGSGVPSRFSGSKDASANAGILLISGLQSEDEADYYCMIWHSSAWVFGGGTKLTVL
VH: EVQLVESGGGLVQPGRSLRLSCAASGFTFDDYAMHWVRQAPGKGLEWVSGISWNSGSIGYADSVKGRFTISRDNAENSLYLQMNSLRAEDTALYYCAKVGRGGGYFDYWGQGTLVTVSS

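Library AAYL51 holds single substitutions and randomly drawn double and triple substitutions in the CDRs. Affinity was read by AlphaSeq, a pooled yeast mating assay with surface-displayed partners. The frequency of each diploid, read from paired DNA barcodes, reflects how well the two displayed proteins bind. Scores were corrected for input abundance and mapped to Kd with protein pairs of known affinity run in the same pool. The assay was run in three technical replicates.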

The parent's heavy chain CDRs are GFTFDDYAMH, GISWNSGSIGYADSVK, VGRGGGYFDY; each variant's own CDRs replace them letter for letter.
Scale: log10 of Kd in nM, estimated from mating counts; low values are strong binders.
Replicates are averaged; those with no signal do not enter the mean.
"ND" marks a missing value. The strain was present, yet no cells mated with the target were sequenced in that replicate, which points to weak or no binding.
Background: pairings of library AAYL51 with three empty control strains gave a value in 21% of cases (median 4.54, 5th percentile 3.26). Values in that range, when seen in few replicates, are hard to tell from nonspecific mating. For each scFv, signals with the empty controls are counted beside the result, with their mean in brackets.
In this assay the parent's reference entry averaged 1.86; its copy inside this library read 0.88.

| CDR-H1 | CDR-H2 | CDR-H3 | log10 Kd (nM) by replicate | mean, log10 nM | signal with controls |
|---|---|---|---|---|---|
| GFTFDDYAMS | GISWNSGSIGNADSVK | VGRGGGYFDY | ND ND ND | ND | 0 of 9 |
| GFTFDDYAMH | GISWNSGSISYADRVK | VGRGGGYFDY | 4.60 ND 4.17 | 4.38 | 4 of 9 (4.41) |
| GFTFDDYAFH | GISWNSGSIGYAVSVK | VGRGGGFFDY | 5.26 4.90 4.85 | 5.00 | 5 of 9 (5.22) |
| GFTFDDYAMH | WISWNSGSIFYADSVK | VGRSGGYFDY | ND ND ND | ND | 1 of 9 (4.81) |
| GFFFDDYAMV | GISWNSGSIGYADSVK | VGRNGGYFDY | ND ND ND | ND | 1 of 9 (4.16) |
| GFSFDDYAMH | GISWNSGPIGYADSVK | VGRGGGYFDW | ND ND ND | ND | 0 of 9 |
| AFTFDDYAMH | GISWNSGSIGYADSVK | VGRGGGYFDF | ND ND ND | ND | 1 of 9 (3.83) |
| GFTFDDYAMH | GISWNSGSIEYADSVK | VGRGGGVFTY | 3.22 ND ND | 3.22 | 1 of 9 (4.23) |
| GFTFDDYAMH | GISWNSGSIGYAQYVK | VGRGGGYFDY | 2.36 2.08 1.81 | 2.08 | 0 of 9 |
| GFTFDDYAMH | GISWNSGSIGYADAVK | IGRGGGNFDY | ND ND ND | ND | 0 of 9 |
| GFTFDDYANH | GISWNSGCIGYADSVK | VGRGGFYFDY | ND ND ND | ND | 2 of 9 (3.10) |
| GFTFDDYAMQ | GISYNSGSIGYADSVK | VGRGGGYFDY | 5.56 4.57 ND | 5.06 | 2 of 9 (4.25) |
| LFTFDDYAMH | GISWNGGSKGYADSVK | VGRGGGYFDY | 1.75 1.82 1.28 | 1.62 | 5 of 9 (5.35) |
| GFTFDNYAMH | GISWNSGSIGYASSVK | VGCGGGYFDY | 0.87 0.86 0.11 | 0.61 | 2 of 9 (3.98) |
| CFTDDDYAMH | GISWNSGSIGYIDSVK | VGRGGGYFDY | 4.26 ND ND | 4.26 | 2 of 9 (3.04) |
| GFTFDDYAMH | GISWMSGSIGSADSVK | VGRGGGYRDY | 3.37 5.32 ND | 4.34 | 2 of 9 (3.67) |
| GFTFDDYRMH | GISWNSGSIGYADSVV | VGRGGGYFGY | 4.91 5.43 ND | 5.17 | 2 of 9 (4.55) |
| GFVFDDYAMH | GISWNSGPIGYADHVK | VGRGGGYFDY | 4.84 4.99 5.69 | 5.17 | 4 of 9 (5.08) |
| GFTFDGYAMH | GISWNSYSIGYADSVK | VGRGGGYFDY | 4.08 ND ND | 4.08 | 0 of 9 |
| GFTFDDYAMH | GISWNSGSIGYADWVK | VGRGGGLFSY | 1.30 1.55 1.13 | 1.33 | 2 of 9 (4.62) |
| HFTFDDYAMH | GISWNSGSWGYADSVQ | VGRGGGYFDY | ND 5.87 5.10 | 5.48 | 3 of 9 (4.20) |
| GFTFDDYAMH | GQSWNSGSCGYADSVK | VGRGGGYFDI | ND ND 4.38 | 4.38 | 3 of 9 (4.31) |
| GFTFDDYAMH | GIQWNSGSKGYADSVK | VGRHGGYFDY | ND ND ND | ND | 3 of 9 (3.87) |
| GFSFDDYAMH | GISWNSGSIMYADCVK | VGRGGGYFDY | 5.01 4.55 5.10 | 4.89 | 7 of 9 (4.84) |
| GFTFDDAAEH | GISWNSGSIGHADSVK | VGRGGGYFDY | ND ND ND | ND | 1 of 9 (4.62) |
| GFVFDDYAMH | GISWNSGSIGYADSVK | WGRGGGYFRY | ND ND ND | ND | 1 of 9 (3.44) |
| GFTFDDYAMH | GISWNSASIYYADSVK | VGRGGGYFDY | ND ND ND | ND | 0 of 9 |
| GFTFDDYAMH | GISWNSGSIGYADSVK | VGRWGGYFFN | 4.76 4.79 4.94 | 4.83 | 7 of 9 (5.20) |
| GFTPDDYAYH | GISWNSGSIGYADSVK | VGGGGGYFDY | 5.82 5.30 5.76 | 5.63 | 3 of 9 (4.84) |
| GFRFDDYAMH | GISINSGSIGYADSVK | VGPGGGYFDY | 4.07 ND ND | 4.07 | 1 of 9 (3.35) |
| GFTFDDWAMH | GISWNSGSIGYADSLK | VGRGKGYFDY | ND ND ND | ND | 0 of 9 |
| GFKFDDYAMH | GISWNSGDIGYADSVK | VGRGGWYFDY | 4.08 5.58 ND | 4.83 | 4 of 9 (4.09) |
| GFTFDDYAPH | GISWNSGSIGIADSVK | VGRGGGPFDY | 3.46 3.79 ND | 3.63 | 1 of 9 (4.19) |
| GFTFDDYHMH | GISSNSGSIGYADSVK | VGHGGGYFDY | ND ND ND | ND | 2 of 9 (3.21) |
| GFTFDDYAMH | GISWNWMSIGYADSVK | VGRVGGYFDY | ND ND ND | ND | 0 of 9 |
| GFTFDKYAMH | GISWNSGSINYADSVK | VQRGGGYFDY | 3.74 5.68 ND | 4.71 | 4 of 9 (4.03) |
| GFTFDPYASH | GISHNSGSIGYADSVK | VGRGGGYFDY | ND ND ND | ND | 1 of 9 (4.07) |
| GFTSDDYARH | GISWNSGSIGYAPSVK | VGRGGGYFDY | 6.21 6.35 ND | 6.28 | 6 of 9 (4.60) |
| GFTFDDYAMT | GISWNSGSIGYADSVK | VGRGGGYFDY | 5.59 ND ND | 5.59 | 5 of 9 (5.17) |
| AFTFDDAAMH | GISWNSGSIGYADSVK | FGRGGGYFDY | ND ND ND | ND | 1 of 9 (4.25) |
| GFTFDDYAIH | GISYNSGSIGYADSVK | VGRGGGYFDY | 5.09 ND ND | 5.09 | 0 of 9 |
| GFIFDDYAMH | GISWNSESIGYADSVK | VGRGGGMFDY | 2.53 2.53 2.46 | 2.51 | 1 of 9 (4.84) |
| GFTFDDYAMY | GISWNSGSIGYADSVK | VGRGGGYFDY | ND ND ND | ND | 0 of 9 |
| GFTFDDYAMH | GISSNSGSHGYADSVK | VGRGGGYWDY | 2.69 2.73 2.57 | 2.66 | 1 of 9 (3.39) |
| GFTFDDYAMH | GISWNSGSIGLADSVI | VGRGGGYFDY | 3.63 3.53 4.06 | 3.74 | 5 of 9 (5.02) |
| GFTFDDYAMH | GWSWNSGSIFYADSVK | VGRGGGYFEY | ND ND ND | ND | 0 of 9 |
| GHTFDDYAMH | GISWNSGSIAYADSEK | VGRGGGYFDY | ND ND ND | ND | 0 of 9 |
| GFEFDDYAMH | GISWNSGSIGYADSVK | VGCGGGYCDY | ND ND ND | ND | 0 of 9 |
| GFTFDDYAMH | GISWNSGSEGYADSVK | VGRGGGYFQY | ND ND ND | ND | 0 of 9 |
| GFTFDDYAMH | NISWESGSIGYADSVR | VGRGGGYFDY | ND ND ND | ND | 0 of 9 |
| GFTFIDYAMH | GISWNSGSIGYADSFK | VGRGGGYFDY | 2.12 2.30 1.93 | 2.12 | 1 of 9 (4.28) |

For reference, 6 entries of the list once more:

CDR-H1	CDR-H2	CDR-H3	log10 Kd (nM) by replicate	mean, log10 nM	signal with controls
GFTFDDYANH	GISWNSGCIGYADSVK	VGRGGFYFDY	ND ND ND	ND	2 of 9 (3.10)
GFTFDDAAEH	GISWNSGSIGHADSVK	VGRGGGYFDY	ND ND ND	ND	1 of 9 (4.62)
GFTFDDYAMH	GIQWNSGSKGYADSVK	VGRHGGYFDY	ND ND ND	ND	3 of 9 (3.87)
GFTFDDYAMH	GISWNSASIYYADSVK	VGRGGGYFDY	ND ND ND	ND	0 of 9
GFTFDPYASH	GISHNSGSIGYADSVK	VGRGGGYFDY	ND ND ND	ND	1 of 9 (4.07)
HFTFDDYAMH	GISWNSGSWGYADSVQ	VGRGGGYFDY	ND 5.87 5.10	5.48	3 of 9 (4.20)